This is an account of results in ChEMBL document CHEMBL4406811, “Optimization and Mechanistic Characterization of Pyridopyrimidine Inhibitors of Bacterial Biotin Carboxylase” (J Med Chem, 2019).

The structures appear in SMILES notation. Values after ≈ are worked out from the molar mass of the structure shown. Where only a bound is given, the exact number is not on record here.

What all share (format): functional
One assay concerns Acinetobacter baumannii. Description: Antibacterial activity against wild-type Acinetobacter baumannii ATCC 19606 measured after 18 to 20 hrs by broth microdilution method. As to conditions: ATCC 19606 = CIP 70.34 = JCM 6841. In general terms: In broth dilution the organism is exposed to a series of concentrations in liquid medium.
The subject of another assay is Klebsiella pneumoniae. Description: Antibacterial activity against Klebsiella pneumoniae ATCC 43816 measured after 18 to 20 hrs by broth microdilution method.
The next assay relates to Pseudomonas aeruginosa. In words: Antibacterial activity against Pseudomonas aeruginosa PAO1 measured after 18 to 20 hrs by broth microdilution method.
In assay [1] the test system is Escherichia coli. Description: Antibacterial activity against Escherichia coli DM4100 measured after 18 to 20 hrs in presence of permeabilizing agent PMBN by broth microdilution method.
For assay [2], the system named is Escherichia coli. Description: Antibacterial activity against Escherichia coli DM4100 measured after 18 to 20 hrs by broth microdilution method.

Regarding `Nc1ncc2cc(-c3ccccc3-c3ccccc3)c(N)nc2n1`, the MIC with Acinetobacter baumannii and in the assay with Klebsiella pneumoniae was > 256 µg/mL each time.

Regarding `Nc1ncc2cc(-c3c(Cl)cccc3Cl)c(N)nc2n1`, the values for the MIC against Acinetobacter baumannii and against Pseudomonas aeruginosa were 256 µg/mL (≈ 836 µM) and > 256 µg/mL, respectively.

As for `Nc1ncc2cc(-c3c(Cl)cccc3Cl)c(N3CCC(CO)C3)nc2n1` (stereo unspecified), the MIC in the assay with Acinetobacter baumannii and against Klebsiella pneumoniae was > 64 µg/mL each time.

In the case of `NCC1CCN(c2nc3nc(N)ncc3cc2-c2c(Cl)cccc2Cl)CC1`, the MIC (as a rule, the least concentration at which growth counts as inhibited) with Escherichia coli [1] was 4 µg/mL; against Acinetobacter baumannii it was > 128 µg/mL; against Escherichia coli [2], 32 µg/mL (≈ 79.3 µM); against Pseudomonas aeruginosa, > 128 µg/mL; against Klebsiella pneumoniae, 128 µg/mL (≈ 317 µM).

`NCC1(O)CCN(c2nc3nc(N)ncc3cc2-c2c(Cl)cccc2Cl)C1` (stereo unspecified): the MIC was > 256 µg/mL in the assay on Acinetobacter baumannii, 64 µg/mL (≈ 158 µM) against Escherichia coli [2], > 256 µg/mL in the assay on Pseudomonas aeruginosa and > 256 µg/mL in the assay on Klebsiella pneumoniae.

The compound `Nc1ncc2cc(-c3c(Cl)cccc3Cl)c(N3C[C@@H]4[C@@H](N)[C@@H]4C3)nc2n1` came in with an MIC in the assay with Acinetobacter baumannii of 128 µg/mL (≈ 331 µM).

On to `COc1ccc(-c2cccc(Cl)c2-c2cc3cnc(N)nc3nc2N)cn1`, for which the MIC in the assay with Klebsiella pneumoniae is > 16 µg/mL.

`Nc1ncc2cc(-c3c(Cl)cccc3-c3cccnc3)c(N)nc2n1`: the MIC is 0.5 µg/mL with Escherichia coli [1]; > 256 µg/mL in the assay with Acinetobacter baumannii; 8 µg/mL (≈ 22.9 µM) against Escherichia coli [2]; > 256 µg/mL against Pseudomonas aeruginosa; 32 µg/mL (≈ 91.7 µM) against Klebsiella pneumoniae.

Turning to `NCC1CCN(c2nc3nc(N)ncc3cc2-c2c(Cl)cccc2Cl)C1` (stereo unspecified), the MIC in the assay with Escherichia coli [1] worked out at 2 µg/mL; against Escherichia coli [2], 16 µg/mL (≈ 41.1 µM).

Turning to `Nc1ncc2cc(-c3c(Cl)cccc3Cl)c(N3CCC(N)(CO)C3)nc2n1` (stereo unspecified), the MIC with Escherichia coli [1] was 8 µg/mL; in the assay with Escherichia coli [2], 16 µg/mL (≈ 39.5 µM).
